In data set [1] the target is T1, hPHGDH (Homo sapiens, UniProt O43175).
T1 sequence (O43175 1-533): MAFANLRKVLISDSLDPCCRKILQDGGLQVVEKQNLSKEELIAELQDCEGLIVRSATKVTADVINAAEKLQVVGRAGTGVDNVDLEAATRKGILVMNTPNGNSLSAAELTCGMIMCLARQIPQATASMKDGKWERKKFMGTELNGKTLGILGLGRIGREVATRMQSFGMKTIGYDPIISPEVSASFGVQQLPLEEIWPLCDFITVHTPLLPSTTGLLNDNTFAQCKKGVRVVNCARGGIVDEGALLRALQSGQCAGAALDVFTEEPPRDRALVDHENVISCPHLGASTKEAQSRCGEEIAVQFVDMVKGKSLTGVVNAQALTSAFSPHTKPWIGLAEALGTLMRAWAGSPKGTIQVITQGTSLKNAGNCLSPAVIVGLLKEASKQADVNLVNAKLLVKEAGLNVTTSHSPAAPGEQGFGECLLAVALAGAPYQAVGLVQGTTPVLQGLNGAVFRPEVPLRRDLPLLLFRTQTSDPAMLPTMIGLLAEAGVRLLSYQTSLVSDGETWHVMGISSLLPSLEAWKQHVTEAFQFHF
Kind of data set: hPHGDH reverse reaction kinetics (decrease in NADH fluorescence at 450 nm). The settings on record: 5 mM NADH, Figure S4A,C,D. An excerpt: The latter assay was used to determine the apparent kinetic parameters on alternative substrates.

The test system of data set [2] is E. coli PHGDH. The note with it: reverse reaction; cited from earlier work.
Substrate in data set [3]: O=C(O)CCC(=O)C(=O)O
The data set is described as follows: purified protein, by the assay type. The note with it: other: reverse reaction, 5 mM NADH, pH 7.0.

With `O=C(O)CCC(=O)C(=O)O` [α-Ketoglutarate], in data set [1], the “maximal rate of fit with substrate inhibition” value was found to be 1.0342. Besides, the kinetic efficiency in data set [2] was 30000 M⁻¹ s⁻¹.

B1: recombinant human D-3-phosphoglycerate dehydrogenase, His-tagged, full length (enzyme, UniProt O43175 1-533, looked up)
chain: MAFANLRKVLISDSLDPCCRKILQDGGLQVVEKQNLSKEELIAELQDCEGLIVRSATKVTADVINAAEKLQVVGRAGTGVDNVDLEAATRKGILVMNTPNGNSLSAAELTCGMIMCLARQIPQATASMKDGKWERKKFMGTELNGKTLGILGLGRIGREVATRMQSFGMKTIGYDPIISPEVSASFGVQQLPLEEIWPLCDFITVHTPLLPSTTGLLNDNTFAQCKKGVRVVNCARGGIVDEGALLRALQSGQCAGAALDVFTEEPPRDRALVDHENVISCPHLGASTKEAQSRCGEEIAVQFVDMVKGKSLTGVVNAQALTSAFSPHTKPWIGLAEALGTLMRAWAGSPKGTIQVITQGTSLKNAGNCLSPAVIVGLLKEASKQADVNLVNAKLLVKEAGLNVTTSHSPAAPGEQGFGECLLAVALAGAPYQAVGLVQGTTPVLQGLNGAVFRPEVPLRRDLPLLLFRTQTSDPAMLPTMIGLLAEAGVRLLSYQTSLVSDGETWHVMGISSLLPSLEAWKQHVTEAFQFHF
notes: D-3-phosphoglycerate dehydrogenase, human, 533 amino acids; synthetic gene back-translated from GenBank CAG33076.1, codon-optimised for E. coli, cloned in pETM11 (NcoI/XhoI); The N-terminal 6xHis tag of pETM11 can be cut by TEV protease, but no cleavage is reported; the tagged monomer has a theoretical mass of 59.776 kDa and was detected with an anti-His antibody in the SEC peaks; Tetramer in …
For orientation: kcat means the number of substrate molecules converted per active site and unit of time at saturation. As usually defined, the kcat/Km is the second-order rate constant that governs catalysis at low substrate concentration. In the case of B1, the Km in data set [3] (Figure S4A,C,D, 37.0 °C) turned out to be 23.7 µM. Moreover, in data set [3] (substrate varied, 37 °C), the Km is 0.024 ± 0.007 [Ki = 13.3 ± 4.6] mM, the catalytic constant (kcat) is 1.03 ± 0.10 s⁻¹ and the kcat/Km came to 39100 M⁻¹ s⁻¹.

The values are drawn from PMC8073719, “Biochemical and Biophysical Characterization of Recombinant Human 3-Phosphoglycerate Dehydrogenase” (International Journal of Molecular Sciences, 2021).
